The subject of experiment [1] is LHRH binding sites on human ovarian cancer cells (EFO-27).
Another experiment deals with EFO-27 cells. The experiment is described as follows: Internalization/efflux studies in EFO-27 cells. It is filed as cell-based, human. How it is done: Internalization/Efflux Studies: The internalization and efflux studies were carried out following the general procedure. Basically, ^177Lu-LHRH II or ^125I-LHRH II ([^125I-Tyr^8]BRU-2477) (75 uL, 3.0 μCi/mL) was added to the EFO-27 or PC-3 cells. The cells were incubated for 40 min at 37° C. The unbound radioactivity was washed off (4×). Following addition of fresh medium, the cells were further incubated for up to 2 h. At various time points (15, 30, 60 & 120 min) the distribution of radioactivity (membrane-bound, internalized, and efflux) was determined
The internalization and efflux of several Lu-177 labeled LHRH II analogs in EFO-27 cells have been investigated. Basically, following pre-incubation of cells with ^177Lu-LHRH II samples, the binding buffer containing the ^177Lu was replaced with fresh media without complex. The extent of initial internalization (T=0), the amount of radioactive material that remained internalized and the efflux at 0-120 min were determined. The results are shown in FIGS. 21a-f and 22a-c and in Table 25.

[2] abbreviates: Table 5: modifications of amino acids at positions 1 and 2, in vitro binding on EFO-27 cells.

Each structure is given as a SMILES string. Read-outs that look alike come from different tables or passages of the source.
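Wherever EC50 is given: Cell-associated radioactivity on confluent EFO-27 monolayers in 96-well plates, measured by microplate scintillation counting.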

A word on the EC50: it is the concentration needed to bring the measured effect to its halfway point. With `N=C(N)NCCC[C@H](NC(=O)[C@@H](Cc1ccc2ccccc2c1)NC(=O)CN1CCN(CC(=O)O)CCN(CC(=O)O)CCN(CC(=O)O)CC1)C(=O)N[C@@H](Cc1c[nH]c2ccccc12)C(=O)N[C@@H](CO)C(=O)N[C@@H](Cc1c[nH]cn1)C(=O)N[C@H](CCCNC(=N)N)C(=O)N[C@@H](Cc1c[nH]c2ccccc12)C(=O)N[C@@H](Cc1ccc2ccccc2c1)C(=O)N1CCC[C@H]1C(=O)NNC(N)=O` [BRU-3027], the response in experiment [1] was half-maximal at 0.37 µM (EC50).

`CC(=O)N[C@H](Cc1ccc2ccccc2c1)C(=O)N[C@@H](Cc1c[nH]cn1)C(=O)N[C@@H](Cc1c[nH]c2ccccc12)C(=O)N[C@@H](CO)C(=O)N[C@@H](Cc1c[nH]cn1)C(=O)N[C@H](CCCNC(=N)N)C(=O)N[C@@H](Cc1c[nH]c2ccccc12)C(=O)N[C@@H](Cc1ccc(C(=O)c2ccccc2)cc1)C(=O)N1CCC[C@H]1C(=O)NNC(N)=O` [BRU-2803] returned a 50% effective concentration (EC50) in experiment [1] of 0.26 µM.

Compound `N=C(N)NCCC[C@@H](NC(=O)[C@H](Cc1c[nH]cn1)NC(=O)[C@H](CO)NC(=O)[C@H](Cc1c[nH]c2ccccc12)NC(=O)[C@@H](NC(=O)[C@@H](Cc1ccc2ccccc2c1)NC(=O)CN1CCN(CC(=O)O)CCN(CC(=O)O)CCN(CC(=O)O)CC1)C1CCN(C(=N)N)CC1)C(=O)N[C@@H](Cc1c[nH]c2ccccc12)C(=O)N[C@@H](Cc1ccc(C(=O)c2ccccc2)cc1)C(=O)N1CCC[C@H]1C(=O)NNC(N)=O` [BRU-3060] gave an EC50 in experiment [1] of 0.34 µM.

`N=C(N)NCCC[C@H](NC(=O)[C@@H](Cc1ccc(O)cc1)NC(=O)CN1CCN(CC(=O)O)CCN(CC(=O)O)CCN(CC(=O)O)CC1)C(=O)N[C@@H](Cc1c[nH]c2ccccc12)C(=O)N[C@@H](CO)C(=O)N[C@@H](Cc1c[nH]cn1)C(=O)N[C@H](CCCNC(=N)N)C(=O)N[C@@H](Cc1c[nH]c2ccccc12)C(=O)N[C@@H](Cc1ccc(C(=O)c2ccccc2)cc1)C(=O)N1CCC[C@H]1C(=O)NNC(N)=O` [BRU-3054]: in experiment [1] (setting [2]), the EC50 was found to be 0.43 µM.

On to `N=C(N)NCCC[C@H](NC(=O)[C@H](Cc1cnc2ccccc2c1)NC(=O)CN1CCN(CC(=O)O)CCN(CC(=O)O)CCN(CC(=O)O)CC1)C(=O)N[C@@H](Cc1c[nH]c2ccccc12)C(=O)N[C@@H](CO)C(=O)N[C@@H](Cc1c[nH]cn1)C(=O)N[C@H](CCCNC(=N)N)C(=O)N[C@@H](Cc1c[nH]c2ccccc12)C(=O)N[C@@H](Cc1ccc(C(=O)c2ccccc2)cc1)C(=O)N1CCC[C@H]1C(=O)NNC(N)=O` [BRU-3057], for which the EC50 in experiment [1] came to 0.38 µM.

As for `N=C(N)NCCC[C@@H](NC(=O)[C@H](Cc1c[nH]cn1)NC(=O)[C@H](CO)NC(=O)[C@H](Cc1c[nH]c2ccccc12)NC(=O)[C@H](Cc1c[nH]cn1)NC(=O)[C@@H](Cc1ccc(CN)cc1)NC(=O)CN1CCN(CC(=O)O)CCN(CC(=O)O)CCN(CC(=O)O)CC1)C(=O)N[C@@H](Cc1c[nH]c2ccccc12)C(=O)N[C@@H](Cc1ccc(C(=O)c2ccccc2)cc1)C(=O)N1CCC[C@H]1C(=O)NNC(N)=O` [BRU-2757], in experiment [1], the EC50 came to 0.26 µM. Besides, in the experiment with EFO-27 cells (0 h), the “Cell associated activity at 0 h % Efflux” value is on record as 12.4%. Also, in the experiment with EFO-27 cells (0 h, internalized), the “Cell associated activity at 0 h % Intern” value was found to be 34.5%. Moreover, in the experiment on EFO-27 cells (0 h, membrane bound), the “Cell associated activity at 0 h % Memb” value is recorded as 54.3%. In addition, the “Cell associated activity at 2 h % Efflux” value in the experiment with EFO-27 cells (2 h) is reported as 79.5%. In the experiment on EFO-27 cells (2 h, internalized), the “Cell associated activity at 2 h % Intern” value is given as 11.7%. Besides, the “Cell associated activity at 2 h % Memb” value in the experiment with EFO-27 cells (2 h, membrane bound) is on record as 8.8%. The compound also showed a Bound % in the experiment with EFO-27 cells (of added) of 9.50%. This compound also gave a Bound in the experiment on EFO-27 cells (per well) of 19.0 fmol.

For `N=C(N)NCCC[C@H](NC(=O)[C@@H](Cc1ccc2ccccc2c1)NC(=O)CN1CCN(CC(=O)O)CCN(CC(=O)O)CCN(CC(=O)O)CC1)C(=O)N[C@@H](Cc1ccc(CN)cc1)C(=O)N[C@@H](CO)C(=O)N[C@@H](Cc1c[nH]cn1)C(=O)N[C@H](CCCNC(=N)N)C(=O)N[C@@H](Cc1c[nH]c2ccccc12)C(=O)N[C@@H](Cc1ccc(C(=O)c2ccccc2)cc1)C(=O)N1CCC[C@H]1C(=O)NNC(N)=O` [compound 3107], the EC50 in experiment [1] turned out to be 0.38 µM.

Take `N=C(N)NCCC[C@H](NC(=O)CN1CCN(CC(=O)O)CCN(CC(=O)O)CCN(CC(=O)O)CC1)C(=O)N[C@@H](CCCNC(=N)N)C(=O)N[C@@H](Cc1c[nH]c2ccccc12)C(=O)N[C@@H](CO)C(=O)N[C@@H](Cc1c[nH]cn1)C(=O)N[C@H](CCCNC(=N)N)C(=O)N[C@@H](Cc1c[nH]c2ccccc12)C(=O)N[C@@H](Cc1ccc(C(=O)c2ccccc2)cc1)C(=O)N1CCC[C@H]1C(=O)NNC(N)=O` [BRU-3050]: the response in experiment [1] (setting [2]) was half-maximal at 0.31 µM (EC50).

Turning to `N=C(N)NCCC[C@H](NC(=O)[C@H](CCCNC(=N)N)NC(=O)[C@@H](Cc1ccc2ccccc2c1)NC(=O)CN1CCN(CC(=O)O)CCN(CC(=O)O)CCN(CC(=O)O)CC1)C(=O)N[C@@H](CO)C(=O)N[C@@H](Cc1c[nH]cn1)C(=O)N[C@H](CCCNC(=N)N)C(=O)N[C@@H](Cc1c[nH]c2ccccc12)C(=O)N[C@@H](Cc1ccc(C(=O)c2ccccc2)cc1)C(=O)N1CCC[C@H]1C(=O)NNC(N)=O` [compound 3111], it took 0.25 µM to reach a half-maximal effect in experiment [1] (EC50).

Take `N=C(N)NCCC[C@@H](NC(=O)[C@H](Cc1c[nH]cn1)NC(=O)[C@H](CO)NC(=O)[C@H](Cc1c[nH]c2ccccc12)NC(=O)[C@@H](Cc1ccc(CN)cc1)NC(=O)[C@@H](Cc1ccc(CN)cc1)NC(=O)CN1CCN(CC(=O)O)CCN(CC(=O)O)CCN(CC(=O)O)CC1)C(=O)N[C@@H](Cc1c[nH]c2ccccc12)C(=O)N[C@@H](Cc1ccc(C(=O)c2ccccc2)cc1)C(=O)N1CCC[C@H]1C(=O)NNC(N)=O` [BRU-3095]: the EC50 in experiment [1] was 0.29 µM.

Consider `N=C(N)NCCC[C@H](NC(=O)[C@@H](Cc1ccc2ccccc2c1)NC(=O)[C@@H](CCCCN)NC(=O)CN1CCN(CC(=O)O)CCN(CC(=O)O)CCN(CC(=O)O)CC1)C(=O)N[C@@H](Cc1c[nH]c2ccccc12)C(=O)N[C@@H](CO)C(=O)N[C@@H](Cc1c[nH]cn1)C(=O)N[C@H](CCCNC(=N)N)C(=O)N[C@@H](Cc1c[nH]c2ccccc12)C(=O)N[C@@H](Cc1ccc(C(=O)c2ccccc2)cc1)C(=O)N1CCC[C@H]1C(=O)NNC(N)=O` [compound 3099], for which the EC50 in experiment [1] (Table 13: linker between AA1 and DO3A10CM, EFO-27 cells) is 0.44 µM.

Regarding `N=C(N)NCCC[C@@H](NC(=O)[C@H](Cc1c[nH]cn1)NC(=O)[C@H](CO)NC(=O)[C@H](Cc1c[nH]c2ccccc12)NC(=O)[C@H](Cc1c[nH]cn1)NC(=O)[C@@H](Cc1cccc2ccccc12)NC(=O)CN1CCN(CC(=O)O)CCN(CC(=O)O)CCN(CC(=O)O)CC1)C(=O)N[C@@H](Cc1c[nH]c2ccccc12)C(=O)N[C@@H](Cc1ccc(C(=O)c2ccccc2)cc1)C(=O)N1CCC[C@H]1C(=O)NNC(N)=O` [BRU-2869], the EC50 in experiment [1] came out at 0.36 µM.

For `N=C(N)NCCC[C@H](NC(=O)[C@@H](Cc1ccc(CN)cc1)NC(=O)CN1CCN(CC(=O)O)CCN(CC(=O)O)CCN(CC(=O)O)CC1)C(=O)N[C@@H](Cc1c[nH]c2ccccc12)C(=O)N[C@@H](CO)C(=O)N[C@@H](Cc1c[nH]cn1)C(=O)N[C@H](CCCNC(=N)N)C(=O)N[C@@H](Cc1c[nH]c2ccccc12)C(=O)N[C@@H](Cc1ccc(C(=O)c2ccccc2)cc1)C(=O)N1CCC[C@H]1C(=O)NNC(N)=O` [BRU-2997], a half-maximal response in experiment [1] (EC50) required 0.33 µM.

Compound `N=C(N)NCCC[C@@H](NC(=O)[C@H](Cc1c[nH]cn1)NC(=O)[C@H](CO)NC(=O)[C@H](Cc1c[nH]c2ccccc12)NC(=O)[C@H](Cc1c[nH]cn1)NC(=O)CN1CCN(CC(=O)O)CCN(CC(=O)O)CCN(CC(=O)O)CC1)C(=O)N[C@@H](Cc1c[nH]c2ccccc12)C(=O)N[C@@H](Cc1ccc(C(=O)c2ccccc2)cc1)C(=O)N1CCC[C@H]1C(=O)NNC(N)=O` [BRU-2811] registered an EC50 in experiment [1] of 0.36 µM.

`N=C(N)NCCC[C@H](NC(=O)[C@@H](Cc1ccc(C(=O)c2ccccc2)cc1)NC(=O)CN1CCN(CC(=O)O)CCN(CC(=O)O)CCN(CC(=O)O)CC1)C(=O)N[C@@H](Cc1c[nH]c2ccccc12)C(=O)N[C@@H](CO)C(=O)N[C@@H](Cc1c[nH]cn1)C(=O)N[C@H](CCCNC(=N)N)C(=O)N[C@@H](Cc1c[nH]c2ccccc12)C(=O)N[C@@H](Cc1ccc(C(=O)c2ccccc2)cc1)C(=O)N1CCC[C@H]1C(=O)NNC(N)=O` [BRU-3071] came in with an EC50 in experiment [1] of 0.31 µM.

As for `N=C(N)NCCC[C@@H](NC(=O)[C@H](Cc1c[nH]cn1)NC(=O)[C@H](CO)NC(=O)[C@H](Cc1c[nH]c2ccccc12)NC(=O)[C@H](Cc1ccc(NC(=N)N)cc1)NC(=O)[C@@H](Cc1ccc2ccccc2c1)NC(=O)CN1CCN(CC(=O)O)CCN(CC(=O)O)CCN(CC(=O)O)CC1)C(=O)N[C@@H](Cc1c[nH]c2ccccc12)C(=O)N[C@@H](Cc1ccc(C(=O)c2ccccc2)cc1)C(=O)N1CCC[C@H]1C(=O)NNC(N)=O` [BRU-3058], a half-maximal response in experiment [1] (EC50) required 0.26 µM.

`N=C(N)NCCC[C@H](NC(=O)[C@@H]1Cc2c([nH]c3ccccc23)CN1C(=O)CNC(=O)CN1CCN(CC(=O)O)CCN(CC(=O)O)CCN(CC(=O)O)CC1)C(=O)N[C@@H](Cc1c[nH]c2ccccc12)C(=O)N[C@@H](CO)C(=O)N[C@@H](Cc1c[nH]cn1)C(=O)N[C@H](CCCNC(=N)N)C(=O)N[C@@H](Cc1c[nH]c2ccccc12)C(=O)N[C@@H](Cc1ccc(C(=O)c2ccccc2)cc1)C(=O)N1CCC[C@H]1C(=O)NNC(N)=O` [BRU-3053]: the EC50 in experiment [1] (setting [2]) came out at 0.32 µM.

With `N=C(N)NCCC[C@H](NC(=O)[C@H](Cc1c[nH]cn1)NC(=O)CN1CCN(CC(=O)O)CCN(CC(=O)O)CCN(CC(=O)O)CC1)C(=O)N[C@@H](Cc1c[nH]c2ccccc12)C(=O)N[C@@H](CO)C(=O)N[C@@H](Cc1c[nH]cn1)C(=O)N[C@H](CCCNC(=N)N)C(=O)N[C@@H](Cc1c[nH]c2ccccc12)C(=O)N[C@@H](Cc1ccc(C(=O)c2ccccc2)cc1)C(=O)N1CCC[C@H]1C(=O)NNC(N)=O` [BRU-3025], in experiment [1] (read-out: EC50 μM, Underivatized LHRH peptides and LHRH peptides with chelator on N-terminus, EFO-27 cells), the EC50 amounted to 0.47 µM.

The values are drawn from patent US20120045393A1 (priority 2009, published 2012).
